Article PMC11860776 (Viruses, 2025)

Target: T1, mIMPα2ΔIBB (Mus musculus, UniProt P52293)
T1 construct: made in house; host or cells: bacteria
Experiment: AlphaScreen-based binding assay of biotinylated NLS peptides to importin α
Details: biotinylated NLS peptide

In the case of GACHAtKPRIT [NLS1 NLS mut], the “specific binding to mIMPα2ΔIBB” value is reported as “no specific binding was detected”.
